# Laboratory results taken from PubChem BioAssay AID1671189 (National Center for Advancing Translational Sciences (NCATS), 2021).
# Amino acid sequences for entries named in this document (tags omitted). A change or cut given only in a name is not applied to a line headed by its entry.
# UniProt P18054: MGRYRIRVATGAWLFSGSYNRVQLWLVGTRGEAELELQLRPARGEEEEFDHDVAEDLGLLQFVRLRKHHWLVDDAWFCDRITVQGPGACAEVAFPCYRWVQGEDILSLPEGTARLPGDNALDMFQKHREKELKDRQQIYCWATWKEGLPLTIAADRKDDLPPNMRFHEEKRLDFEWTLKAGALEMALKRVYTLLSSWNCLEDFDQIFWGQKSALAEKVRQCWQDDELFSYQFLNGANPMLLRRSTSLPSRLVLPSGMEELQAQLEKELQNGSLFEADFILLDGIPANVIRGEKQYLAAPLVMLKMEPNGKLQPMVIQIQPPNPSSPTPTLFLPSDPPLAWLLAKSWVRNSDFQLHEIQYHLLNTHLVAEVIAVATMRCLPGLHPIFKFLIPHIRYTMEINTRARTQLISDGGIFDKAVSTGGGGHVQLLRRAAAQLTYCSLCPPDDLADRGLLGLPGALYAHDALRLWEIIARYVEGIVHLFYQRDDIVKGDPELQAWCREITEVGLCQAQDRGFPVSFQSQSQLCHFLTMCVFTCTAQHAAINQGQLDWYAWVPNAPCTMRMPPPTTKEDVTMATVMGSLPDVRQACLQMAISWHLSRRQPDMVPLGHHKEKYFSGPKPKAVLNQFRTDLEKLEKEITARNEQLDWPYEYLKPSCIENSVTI
# This is a selection; strong and weak results do not stand in their true shares. Active and inactive are the calls of the source. Calls come from the whole dose curve; as a rule, active = well fitted curve in the direction sought with a large enough effect; inconclusive = small, poorly fitted or top-dose-only effect, or another doubt; inactive = no such curve, though single readings can be large or run the other way.
# Biological target: Polyunsaturated fatty acid lipoxygenase ALOX12 (Homo sapiens) (UniProt P18054)
# Assay: Confirmatory qHTS assay for inhibitors of human arachidonate 12S-lipoxygenase (ALOX12): Round 2
# Details: purified human 12-LOX, xylenol orange absorbance
# Excerpt: Assay Provider: Theodore R. Holman Ph.D. University of California, Santa Cruz, California Human lipoxygenase 12hLO is a member of the closely related lipoxygenase family of enzymes which catalyze the site-specific oxidation of arachidonic acid to various hormone precursor molecules and as such is a candidate for drug development in a variety of disease areas, such as cancer and inflammation. Inhibition of 12hLO activity was screened by utilizing arachidonic acid as a substrate. The extent of hydroperoxide product formation was measured by a secondary chromogenic reaction in which xylenol orange (XO, Sigma-Aldrich, cat. number 39,818-7) reacts with the ferric ions produced from the reaction between the hydroperoxide and ferrous ions. The Fe (III)-XO complex is characterized with red-shifted absorbance at 560 nm. […]
# PROTOCOL TABLE SEQUENCE No. (e.g., 1, 2, 3, etc.); […] […] 7; Incubation; 30 min; room temperature 8; Detector; absorbance; Read 1 at 405 nm absorbance using ViewLux (PerkinElmer) CCD imager. 9; Detector; absorbance; Read 2 at 573 nm absorbance using ViewLux (PerkinElmer) CCD imager. […] 8, 9; Two absorbance readouts were obtained at 405 nm and at 573 nm using a ViewLux high-throughput CCD plate imager (PerkinElmer). The 573 to 405 (Read 2 / Read 1) absorbance ratio was used to compute reaction progress.
# Potency is the fitted concentration of half-maximal effect.
row,SMILES,Potency
1,COc1cccc(CNc2ccc(S(=O)(=O)Nc3nccs3)cc2)c1O,active: 19.3 µM
